Screening results from PubChem BioAssay.
Most compounds without a hit are left out; they make up all but 2.8% or so of the library.
esBAF inh: blocks esBAF chromatin remodeling in mouse ES cells | Bmi1-luciferase knock-in reporter, 24 h; 100% = twice the neutral-well signal | reporter increase, % at 12.5 µM | 2% of 350,000 active; in the data active = activation above about 40%; inconclusive = no clear call, values can overlap the other calls;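 also: 0% = median of the plate's neutral control wells and 100% = double that signal; a rise in the Bmi1 reporter signal indicates esBAF inhibition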
Wnt bcat act: activators of Wnt/beta-catenin signaling; activation, % at 9.35 µM; AID 743398; Wnt/beta-catenin reporter cell assay, activator, plate reader; 1.2% of 300,000 active; in the data active = activation above about 30%, passing the limit was not always enough; inconclusive = no clear call, values can overlap the other calls;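 also: 0% = neutral control wells and 100% = positive control wells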
MITF act: increases MITF-driven TRPM1 promoter luciferase signal; SK-MEL-5 TRPM1-promoter luciferase, 24 h; % of positive control, neutral wells = 0; activation, % at 12.5 µM; 0.75% of 300,000 active; AID 588334;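 active = mean activation of at least 80% with every replicate also reaching 80%; inconclusive = mean reaches 80% but some replicate falls short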;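 also: 0% = neutral control wells and 100% = parthenolide positive control wells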
PglD inh: blocks C. jejuni PglD acetyltransferase activity; purified PglD enzyme, DTNB colorimetric CoA detection; inhibition, % at 12.5 µM; 0.098% of 360,000 active; in the data active = inhibition above about 16%, passing the limit was not always enough; inconclusive = no clear call, values can overlap the other calls
Yeast UUG start: modulators of start codon recognition fidelity in yeast; AID 602363; hit rate 0.13% among 350,000; activity score, % at 18.7 µM; S. cerevisiae UUG-firefly luciferase reporter, luminescence/redox ratio;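 active = replicate mean at a twofold rise or more, about +100% in these data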;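 note: firefly luciferase made from a UUG start codon reports start codon fidelity; reporter light over untreated wells divided by growth signal over untreated wells; some hits fall short of that in this replicate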
miR122 inh: inhibitors of miR-122 in Huh7 cells | Huh7 miR-122 Renilla luciferase sensor, 48 h; neutral wells = 0, positive control = 100 | activation (reporter increase), % at 12.5 µM | 0.3% of 340,000 active;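 active = mean replicate activation score at least 90 and every replicate individually at or above 90; inconclusive = only one of the two criteria met; inactive = neither criterion met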;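 also: higher luciferase means less miR-122 activity so hits act as miR-122 inhibitors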
An asterisk follows results filed as active; ? = inconclusive; / = no result; [ ] = another dose, or the depositor's remark.

Assay codes: A = esBAF inh; B = Wnt bcat act; C = MITF act; D = PglD inh; E = Yeast UUG start; F = miR122 inh
O=S(=O)(Nc1cccc(-c2ccc(N3CCOCC3)nn2)c1)c1cc(Cl)ccc1Cl
  A = 33.9	B = 17.0	C = 69.1	D = -0.1	E = 7.3	F = /

COc1cc(CN(C)C(=O)C(=O)c2c[nH]c3ccccc23)ccc1O
  A = 2.4	B = 1.9	C = -11.5	D = 1.1	E = -31.1	F = 146.1*

COc1ccc(C/C(C)=N\NC(=O)c2c[nH]c3ccccc23)cc1OC
  A = 2.3	B = 39.4*	C = 3.1	D = 1.5	E = -18.4	F = -0.2

C[C@@H]1CCCCO[C@@H](CN(C)C(=O)CCCN(C)C)[C@H](C)CN([C@H](C)CO)C(=O)c2cc(NC(=O)NC3CCCCC3)ccc2O1
  A = -4.4	B = /	C = /	D = -0.8	E = 8.4	F = 3.7[16.7 µM]

COc1ccc(CNc2ccc(Br)cc2)cc1
  A = /	B = 43.4*	C = 57.5	D = /	E = /	F = -23.6

COc1ccc(CNc2ccc(-c3ccc(OC)cc3)nn2)cc1
  A = 44.7*	B = /	C = 43.8	D = 0.2	E = -13.1	F = /

CCS(=O)(=O)Nc1ccc2c(c1)C(=O)N(C)C[C@H](OC)[C@H](C)CN(Cc1nccs1)[C@@H](C)CO2
  A = -9.7	B = /	C = /	D = -2.6	E = -13.4	F = -0.4[16.7 µM]

CCC(=O)N[C@@H]1CC[C@@H](CC(=O)OC)O[C@@H]1CO
  A = 1.5	B = /	C = /	D = 1.6	E = -1.8	F = -2.9[16.7 µM]

C[C@H](CO)N1C[C@H](C)[C@@H](CN(C)S(=O)(=O)c2cn(C)cn2)Oc2cc(C3=CCCC3)ccc2S1(=O)=O
  A = 1.5	B = /	C = /	D = 5.6	E = -8.3	F = -2.4[16.7 µM]

O=c1c(-c2ccc(O)cc2O)coc2cc(O)cc(O)c12
  A = 0.6	B = -1.8	C = 5.3	D = -1.6	E = -12.0	F = 2.7

COc1ccc(-c2coc3cc(O)ccc3c2=O)cc1OC
  A = 58.9*	B = /	C = 38.7	D = -3.2	E = -13.6	F = -0.3

COc1ccccc1-c1coc2cc(O)cc(O)c2c1=O
  A = 46.4*	B = /	C = 30.6	D = -1.4	E = -7.4	F = -2.3

COc1ccc(-c2coc3cc(O)cc(O)c3c2=O)cc1OC
  A = 53.6*	B = 25.0	C = 67.5	D = /	E = /	F = 13.4

CC(=O)N(C)C[C@H]1Oc2cc(C#Cc3cccc(F)c3)ccc2S(=O)(=O)N([C@@H](C)CO)C[C@H]1C
  A = 2.2	B = /	C = /	D = -1.0	E = 9.0	F = 12.1[16.7 µM]

CN(C)S(=O)(=O)c1cccc(NC(=O)C2Cc3ccccc3CN2C(=O)c2ccco2)c1 (centres undefined)
  A = 43.6*	B = 2.3	C = -4.5	D = -2.7	E = -0.1	F = -4.4

Cc1noc(C)c1NC(=O)N[C@@H]1C=C[C@@H](CC(=O)NCc2ccc(Cl)c(Cl)c2)O[C@@H]1CO
  A = 2.8	B = /	C = /	D = -0.2	E = -2.5	F = /

COc1ccc2nc(-c3ccccc3)nc(SC)c2c1
  A = 47.3*	B = 12.4	C = 27.2	D = 1.0	E = -12.2	F = 4.9

COc1ccc2nc(C)[nH]c(=O)c2c1
  A = -2.3	B = /	C = -2.0	D = 4.3	E = -7.0	F = /

COc1ccc2nc(-c3ccccc3)[nH]c(=O)c2c1
  A = 44.4*	B = 2.5	C = 33.7	D = 2.2	E = -19.5	F = -3.6

CNC(=O)C[C@H]1CC[C@@H]2[C@@H](COc3ccc(NC(=O)Nc4cccc(F)c4)cc3C(=O)N2C)O1
  A = -2.1	B = /	C = /	D = /	E = /	F = 8.3[16.7 µM]

COc1ccccc1N=Nc1ccc(O)c2ncccc12
  A = 64.3*	B = 15.7	C = 1.2	D = -12.8	E = -16.7	F = -11.8

Cc1ccc(S(=O)(=O)Nc2ccc3c(c2)CC(=O)N([C@H](C)CO)C[C@H](C)[C@@H](CN(C)C(=O)Nc2ccc(C(F)(F)F)cc2)O3)cc1
  A = 4.5	B = /	C = /	D = 0.9	E = 15.9	F = 6.6[16.7 µM]

CCc1nc2oc3ccccc3c(=O)c2c(=O)n1CCOC
  A = -11.2	B = -7.5	C = /	D = -7.3	E = -2.4	F = 7.6

Cc1ccc(-n2c(C(C)C)nc3oc4ccccc4c(=O)c3c2=O)cc1
  A = /	B = 65.3*	C = 44.1	D = /	E = /	F = /

COc1ccc(Cn2c(-c3ccco3)nc3oc4ccccc4c(=O)c3c2=O)cc1
  A = 67.6*	B = 6.6	C = /	D = 7.2	E = -3.8	F = -1.4

Part of the list above, with two lines to a compound.
Every second line gives: esBAF inh	Wnt bcat act	MITF act	PglD inh	Yeast UUG start	miR122 inh
> COc1ccc2nc(C)[nH]c(=O)c2c1
    -2.3	/	-2.0	4.3	-7.0	/
> COc1ccc2nc(-c3ccccc3)[nH]c(=O)c2c1
    44.4*	2.5	33.7	2.2	-19.5	-3.6

Taken from above.
Result of `O=S(=O)(Nc1cccc(-c2ccc(N3CCOCC3)nn2)c1)c1cc(Cl)ccc1Cl` in Wnt bcat act: 17.0
Result of `COc1ccc2nc(C)[nH]c(=O)c2c1` in MITF act: -2.0
Result of `COc1ccc(CNc2ccc(-c3ccc(OC)cc3)nn2)cc1` in MITF act: 43.8

Next section:
Assay codes: A = esBAF inh; B = Wnt bcat act; C = MITF act; D = PglD inh; E = Yeast UUG start; F = miR122 inh
COc1ccc(Cn2c(-c3ccco3)nc3oc4cc(OC)ccc4c(=O)c3c2=O)cc1
  A = ?	B = 24.3	C = 69.5	D = 6.1	E = -13.6	F = -3.7

CCc1nc2oc3ccccc3c(=O)c2c(=O)n1-c1ccc(C)cc1
  A = /	B = 43.8*	C = /	D = -1.6	E = 3.1	F = 12.8

CCc1nc2oc3ccccc3c(=O)c2c(=O)n1-c1ccccc1
  A = 30.4	B = 53.2*	C = 35.4	D = 4.8	E = -4.0	F = 4.2

COCCn1c(C(C)C)nc2oc3ccccc3c(=O)c2c1=O
  A = -2.8	B = 0.4	C = 4.9	D = 0.3	E = -1.0	F = -7.2

CCCNC(=O)N1CC[C@@H]2[C@@H](CO)N(C)c3ccc(-c4ccc(F)cc4)cc3[C@@H]21
  A = -8.8	B = /	C = /	D = 1.0	E = 6.9	F = -3.3[16.7 µM]

COc1ccc(S(=O)(=O)N(C)C[C@@H]2OCCCC[C@H](C)Oc3ccc(NC(=O)NC(C)C)cc3C(=O)N([C@@H](C)CO)C[C@H]2C)cc1
  A = 0.8	B = /	C = /	D = 2.8	E = -3.3	F = 11.8[16.7 µM]

CCCc1nc2oc3ccccc3c(=O)c2c(=O)n1-c1ccccc1
  A = /	B = 15.2	C = /	D = 3.1	E = -8.4	F = 3.3

CCCc1nc2oc3ccccc3c(=O)c2c(=O)n1-c1ccc(C)cc1
  A = /	B = 49.2*	C = /	D = 4.6	E = 12.1	F = -0.2

CC(=O)Nc1ccc(-c2ccnc3c2CC(C)(C(=O)NC(C)C)O3)cc1 (centres undefined)
  A = -0.9	B = 41.1*	C = /	D = -9.3	E = -12.7	F = -12.1

O=C(CNc1ccccc1OC(F)F)N1CCc2ccccc21
  A = /	B = /	C = 107.6*	D = /	E = /	F = /

N#Cc1ccc(OCC(=O)N2CCc3ccccc32)cc1
  A = 44.5*	B = -3.9	C = 72.3	D = 1.9	E = -2.0	F = -0.7

O=C(OCC(=O)N1CCc2ccccc21)c1ccc(Br)o1
  A = -1.7	B = 1.9	C = -7.4	D = 5.4	E = -10.5	F = -0.6

Cc1cc(C(=O)OCC(=O)N2CCc3ccccc32)c(C)o1
  A = 49.8*	B = /	C = 57.7	D = 1.8	E = -4.2	F = /

O=C(COc1ccc(F)cc1)N1CCCc2ccccc21
  A = 5.9	B = 1.0	C = 1.3	D = -2.3	E = 7.7	F = -0.7

COc1ccc(OCC(=O)N2CCc3ccccc32)c([N+](=O)[O-])c1
  A = 54.0*	B = -1.2	C = /	D = 9.0	E = -5.0	F = -0.3

CC(C)NC(=O)Nc1ccc2c(c1)C(=O)N([C@@H](C)CO)C[C@H](C)[C@@H](CN(C)CC1CCCCC1)OCCCC[C@@H](C)O2
  A = 4.4	B = /	C = /	D = 3.1	E = /	F = -5.3[16.7 µM]

Cc1ccc(S(=O)(=O)N(C)C[C@@H]2OCCCC[C@H](C)Oc3ccc(NC(=O)c4ccccc4)cc3C(=O)N([C@@H](C)CO)C[C@H]2C)cc1
  A = -4.5	B = /	C = /	D = 9.8	E = -0.9	F = 1.9[16.7 µM]

Cc1noc(C)c1NC(=O)Nc1ccc2c(c1)C(=O)N([C@@H](C)CO)C[C@@H](C)[C@H](CN(C)C(=O)Nc1ccc(F)cc1)OCCCC[C@@H](C)O2
  A = 0.1	B = /	C = /	D = 1.5	E = 7.5	F = 2.4[16.7 µM]

Cc1ccc(S(=O)(=O)N(C)C[C@H]2OCCCC[C@H](C)Oc3ccc(NS(=O)(=O)c4ccccc4)cc3C(=O)N([C@@H](C)CO)C[C@H]2C)cc1
  A = -1.3	B = /	C = /	D = 2.8	E = -10.6	F = -5.4[16.7 µM]

O=C(COc1ccc([N+](=O)[O-])cc1Cl)N1CCc2ccccc21
  A = 66.0*	B = 41.7*	C = 119.3*	D = -0.4	E = -5.4	F = -6.7

O=C(COc1ccc(F)cc1Br)N1CCc2ccccc21
  A = 24.0	B = 72.3*	C = 16.9	D = -1.7	E = -2.5	F = -0.4

CC(C)NC(=O)N(C)C[C@H]1Oc2c(NC(=O)Nc3ccc4c(c3)OCO4)cccc2C(=O)N([C@H](C)CO)C[C@H]1C
  A = 6.6	B = /	C = /	D = 2.0	E = 5.8	F = 0.8[16.7 µM]

O=CN(/C=C1\Sc2ccccc2C1=O)Cc1ccccc1
  A = 51.5*	B = 8.2	C = 11.4	D = -5.3	E = -39.0	F = 39.7
